# Tested on: Fepi
# Assay: Intermittent Light Stimulation (ILS) induced seizures in the photosensitive reflex epileptic chicken model
# Type: in vivo
# Conditions: treated (50, 100 or 2000 mg/Kg, intraperitoneal, 10 days) versus placebo homozygous; ILS 14 flashes per second; p-value 9 e-07
# Protocol: The inventors have tested the antiepileptic effect of LEVETIRACETAM (Keppra®, UCB PHARMA) in the chicken model according to the invention.
# 71 Fepi 3-5 months old and identified for ILS seizures at the birth were tested with LEVETIRACETAM.
# During 21 days, they were exposed to ILS (3 minutes) once a day.
# Behavioural activities were observed and time recorded for each phase of the paroxysmal manifestation during controlled intermittent light stimulation: • T0: ILS starts • T1 (time in seconds): neck myoclonus starts • T2 (time in seconds): convulsive phase starts • T3 (time in seconds): convulsive phase ends
# The first day they were tested for control and all had ILS induced seizures.
# The following 10 days all the animals received an intraperitoneal injection, 18 animals with 200 mg/kg of LEVETIRACETAM, 17 with 100 mg/kg, and 18 with 50 mg/kg, while 18 control animals received a placebo injection. […]
# During the last 10 days, none of the animals was treated.
# The influence of the treatment on the stimulus locked myoclonus and generalized convulsions of the photosensitive GRS was evaluated using generalized linear models implemented in the function glm of the software R, version 2.9.0. The number of seizures for each animal over a given phase of the experiment (with treatment and following treatment) was modeled using a binomial distribution, and linked to factors using the logit function. […]
compound,measurement,value
"CC[C@@H](C(N)=O)N1CCCC1=O [LEVETIRACETAM, (S)-a-ethyl-2-oxo-1-pyrrolidine acetamide]",seizure number (odds ratio),0.03

# Source: EP2492354A1, “Method for identifying compounds useful in the treatment of photosensitive reflex epilepsy” (Institut National De La Recherche Agronomique (INRA), priority 2011, dated 2012)
